How the values were obtained:
[1] = test system: 1321N1 astrocyte cell line
Nrf2-ARE pathway = test system: Nrf2-ARE pathway
Experimental: The Z′ score was calculated as follows Z′=1−(3SD^++3SD^−)/(Ave^+–Ave^−) where SD^+ = standard deviation of positive control wells; SD^− = standard deviation of negative control wells; Ave^+ = average fluorescence reading of positive control wells; Ave^− = average fluorescence reading of negative control wells.
Media was removed by hand and replaced (1 compound/well) with the Spectrum library diluted to 10 μM in 0.1% DMSO using a Q-bot liquid handling system (Genetix, New Milton, UK). […] The TK-GFP CHO ARE cell line was screened twice in a single point assay and the control TK-GFP CHO cell line was screened once to eliminate false positives.
The compounds were applied in triplicate to confluent cells in 96 well plates in serum free medium for 24 hours and the induction of GFP measured in a fluorescence plate reader.
In order to screen the Spectrum collection of 2000 molecules the reporter assay was optimised in […]. To assess the suitability of the assay for library screening, a Z’ score calculation was performed by treating alternate wells with vehicle (0.1% DMSO) and 10 µM Ebselen as a positive control (see calculation in Methods). […] The library was subsequently screened at a single point concentration of 10µM for every compound. […]

3-α-Hydroxygedinin
1321N1 oxidative stress assay Toxic dose [1]: None
C6 oxidative stress assay Toxic dose (C6 astrocyte cell line): None
Toxic dose (Nrf2-ARE pathway): 100 µM
NSC34 oxidative stress assay Toxic dose (NSC34 cells): 10 µM
